Data reported in patent US11160797B2, “Pyridinone derivatives and their use as selective ALK-2 inhibitors” (NOVARTIS AG, priority 2017, dated 2021).

Tested on: HuH7 cells, BMP response element (BRE) luciferase reporter, BMP6 stimulated
Assay: BMP signaling reporter gene assay
Type: cell-based
Details: Homo sapiens, Huh-7; BMP6 100 ng/ml; read-out: MSD HuH7 cell BMP reporter IC50

Compound | pIC50
CCC(CC)n1cc(-c2cncc(-c3ccc4c(c3)CC(=O)N4C)c2)ccc1=O [Example 4, 1-methyl-5-(6′-oxo-1′-(pentan-3-yl)-1′,6′-dihydro-[3,3′-bipyridin]-5-yl)indolin-2-one] | 5.98
CCC(C)n1cc(-c2cncc(-c3ccc4c(c3)CC(=O)N4C)c2)ccc1=O (stereo not drawn) [Example 7, 5-(1′-(sec-butyl)-6′-oxo-1′,6′-dihydro-[3,3′-bipyridin]-5-yl)-1-methylindolin-2-one] | 6.68
CC(C)n1cc(-c2cncc(-c3ccc4c(c3)N(C)C(=O)C4)c2)ccc1=O [Example 26, 6-(1′-Isopropyl-6′-oxo-1′,6′-dihydro-[3,3′-bipyridin]-5-yl)-1-methylindolin-2-one] | 6.15
COCCN1C(=O)Cc2cc(-c3cncc(-c4ccc(=O)n(C(C)C)c4)c3)cnc21 [Example 27, 5-(1′-Isopropyl-6′-oxo-1′,6′-dihydro-[3,3′-bipyridin]-5-yl)-1-(2-methoxyethyl)-1H-pyrrolo[2,3-b]pyridin-2(3H)-one] | 5.63
CC(C)n1cc(-c2cncc(-c3ccc4c(c3)CCC(=O)N4C)c2)ccc1=O [Example 28, 6-(1′-Isopropyl-6′-oxo-1′,6′-dihydro-[3,3′-bipyridin]-5-yl)-1-methyl-3,4-dihydroquinolin-2(1H)-one] | 7.40
COCCN1C(=O)Cc2cc(-c3cncc(-c4ccc(=O)n(C(C)C)c4)c3)ccc21 [Example 29, 5-(1′-Isopropyl-6′-oxo-1′,6′-dihydro-[3,3′-bipyridin]-5-yl)-1-(2-methoxyethyl)indolin-2-one] | 6.62

pIC50: −log10 of the molar value.
